Yeast mating assay 1: variants of the scFv Ab-14

All variants were tested on one target, the spike HR2 peptide PDVDLGDISGINAS (SARS-CoV-2).

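Variants in AAYL50 differ from the parent at up to three CDR positions; double and triple changes were sampled at random. The scFvs were displayed on barcoded MATa yeast, the peptide on MATalpha yeast. Mating (16 h, 30 °C) was followed by selection of diploids and sequencing of their barcodes. A regression on co-assayed BCL2-family reference pairs converts the normalised counts of each replicate to an apparent Kd. Mating was done three times.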

Parent: Ab-14, a human scFv built as VH, a (GGGGS)3 linker, VL. Only the CDRs of the light chain vary.
VH: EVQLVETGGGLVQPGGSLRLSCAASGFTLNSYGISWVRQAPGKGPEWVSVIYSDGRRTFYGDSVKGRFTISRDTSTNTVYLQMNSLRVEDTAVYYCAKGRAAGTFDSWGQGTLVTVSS
VL: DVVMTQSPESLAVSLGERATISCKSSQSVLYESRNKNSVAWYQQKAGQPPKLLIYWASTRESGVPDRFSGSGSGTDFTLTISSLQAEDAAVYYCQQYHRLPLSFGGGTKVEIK

Positions count from residue 1 of the parent VL; S58W puts W in place of S.
Values are apparent Kd, the geometric mean of the replicates that gave a signal; lower means stronger binding.
A pair that was not seen in any replicate is written "nd"; this usually means weak binding, but a binder can also be missed.
Background: pairings of library AAYL50 with three empty control strains gave a value in 18% of cases (median 15 µM, 5th percentile 970 nM). Values in that range, when seen in few replicates, are hard to tell from nonspecific mating.

| Kd | replicates with signal | changes |
|---|---|---|
| 7.5 µM | 1 of 3 | S58W E61R H98G |
| nd | 0 of 3 | A40I Q96G L102M |
| 18 nM | 3 of 3 | E32G N37G L102S |
| 20 nM | 3 of 3 | R34W N35Y Q96H |
| 11 µM | 3 of 3 | L30N R34Y V39N |
| nd | 0 of 3 | N37M A40Y S103M |
| 12 nM | 3 of 3 | K24T S28P N37D |
| nd | 0 of 3 | R34H Q95S L102R |
| nd | 0 of 3 | V29G N37Q S62M |
| 110 nM | 3 of 3 | K36C S58R |
| 27 nM | 3 of 3 | E32Y R34W |
| 41 nM | 3 of 3 | A57M Y97W S103A |
| 25 nM | 3 of 3 | K24Y W56Q L100R |
| nd | 0 of 3 | E32T S33W S58C |
| nd | 0 of 3 | Q95H Y97K R99F |
| 100 nM | 3 of 3 | L30I T59F S103V |
| 140 nM | 3 of 3 | E32R S33T S62I |
| 40 nM | 3 of 3 | S28G N37D A57Y |
| nd | 0 of 3 | S25G V39K R60L |
| nd | 0 of 3 | A40M Q96N R99W |
| 150 nM | 3 of 3 | S25L Q27V V39C |
| nd | 0 of 3 | A57C R60Q R99A |
| 320 nM | 3 of 3 | K24A R34P S103H |
| 1.1 µM | 1 of 3 | V29T R60V L102G |
| 430 nM | 2 of 3 | Q96G R99L S103D |
| nd | 0 of 3 | Y31G H98L P101Q |
| 3.2 µM | 1 of 3 | S38L L100H |
| 96 nM | 3 of 3 | Y31E K36Q L102W |
| 43 nM | 3 of 3 | K24N N35Q E61C |
| 32 nM | 3 of 3 | L30Y R99S P101C |
| nd | 0 of 3 | E32V S62E Q96V |
| 1.0 µM | 2 of 3 | K36D N37D H98T |
| 55 nM | 3 of 3 | V29S S62Y L102M |
| nd | 0 of 3 | T59P R60I L102I |
| nd | 0 of 3 | E32A S58G R99G |
| 5.5 µM | 2 of 3 | N37Y R60G H98D |
| 1.4 µM | 2 of 3 | S38G T59C S103A |
| 470 µM | 1 of 3 | S33C N37T S38K |
| 4.1 µM | 1 of 3 | S26P N37M R99D |
| 62 µM | 1 of 3 | N37Y S58N |
| 29 nM | 3 of 3 | S26M Q27H V29N |
| 16 nM | 3 of 3 | S26E S33N H98N |
| 97 µM | 2 of 3 | N37S A57P E61W |
| 25 nM | 3 of 3 | Y31P T59S S62D |
| 12 nM | 3 of 3 | Q27R L30E S38A |
| 8.2 µM | 1 of 3 | Y31H R34T A40H |

The last 7 entries again:

| changes | Kd | replicates with signal |
|---|---|---|
| N37Y S58N | 62 µM | 1 of 3 |
| S26M Q27H V29N | 29 nM | 3 of 3 |
| S26E S33N H98N | 16 nM | 3 of 3 |
| N37S A57P E61W | 97 µM | 2 of 3 |
| Y31P T59S S62D | 25 nM | 3 of 3 |
| Q27R L30E S38A | 12 nM | 3 of 3 |
| Y31H R34T A40H | 8.2 µM | 1 of 3 |

From the AlphaSeq antibody data of Engelhart et al. 2022 (doi:10.1038/s41597-022-01779-4), copy in the FLAb collection.